For assay [1], the target named is Carbonic anhydrase 2 (Homo sapiens, UniProt P00918).
Assay [2] addresses T1, Carbonic anhydrase 15 (Mus musculus, UniProt Q99N23).
T1 sequence (Q99N23 whole entry): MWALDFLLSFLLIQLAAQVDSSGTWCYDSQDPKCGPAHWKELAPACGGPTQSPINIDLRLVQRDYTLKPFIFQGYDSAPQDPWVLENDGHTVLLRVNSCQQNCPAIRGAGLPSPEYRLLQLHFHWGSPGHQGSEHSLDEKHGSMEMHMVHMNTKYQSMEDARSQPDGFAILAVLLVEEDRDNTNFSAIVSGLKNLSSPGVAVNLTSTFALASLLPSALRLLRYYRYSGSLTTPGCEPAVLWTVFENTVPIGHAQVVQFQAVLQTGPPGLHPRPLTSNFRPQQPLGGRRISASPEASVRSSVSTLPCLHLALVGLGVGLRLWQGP

The record followed here is ChEMBL document CHEMBL1145574, “Carbonic anhydrase inhibitors: Inhibition of the new membrane-associated isoform XV with phenols” (Bioorg Med Chem Lett, 2008).

Compound `O=C(O)c1ccc(O)cc1` [PARABEN] displayed a Ki in assay [1] of 10.6 µM.

`O=C(O)c1ccccc1O` [SALICYLIC ACID] displayed a Ki in assay [2] of 7.2 µM. This counts as single-digit micromolar.

For orientation: Ki means the dissociation constant of the complex between target and ligand, obtained from inhibition or displacement. The low end stands for tighter binding, the high end for weaker binding.
